By UniProt entry, the sequences of proteins in these tests, tags left out.
UniProt P21728, whole entry: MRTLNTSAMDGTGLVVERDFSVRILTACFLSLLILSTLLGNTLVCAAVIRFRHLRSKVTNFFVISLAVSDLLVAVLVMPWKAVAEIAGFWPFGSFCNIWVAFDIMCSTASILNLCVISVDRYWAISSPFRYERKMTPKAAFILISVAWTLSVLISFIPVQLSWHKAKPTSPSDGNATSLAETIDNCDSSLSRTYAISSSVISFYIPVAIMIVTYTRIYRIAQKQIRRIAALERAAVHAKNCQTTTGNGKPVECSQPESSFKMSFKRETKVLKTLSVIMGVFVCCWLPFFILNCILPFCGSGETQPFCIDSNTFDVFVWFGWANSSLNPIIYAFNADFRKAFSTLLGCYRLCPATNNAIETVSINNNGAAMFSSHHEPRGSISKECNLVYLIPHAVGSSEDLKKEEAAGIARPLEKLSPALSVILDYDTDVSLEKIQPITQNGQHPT

According to patent publication US5547845A (Duke University, priority 1994, dated 1996):

Target: human D1 dopamine receptor (clone HGL26) (Homo sapiens, UniProt P21728)
Test: Adenylyl cyclase activity in membranes of mouse fibroblasts [L-M(TK^-)] expressing HGL26
Format: biochemical
Conditions: SKF38393 and quinpirole, 1 μM each

Structure (SMILES): CCCN1CCC[C@@H]2Cc3n[nH]cc3C[C@H]21 [quinpirole]
- stimulation of adenylyl cyclase activity (in words): ineffective
